Source: patent US8221566B1

Key:
[1] = system: Bacillus spores; assay: Chamber swabs cultured for bacterial growth (cross-contamination check)
[2] = system: Bacillus spores (anthrax surrogates); assay: Overall viability and kill rate of all Bacillus spores after detonation exposure; conditions: total anthrax surrogate spores (1.896±0.264)×10^7

What does the source list for `O=[N+]([O-])N1CC(N(F)F)(N(F)F)CN([N+](=O)[O-])CC(N(F)F)(N(F)F)C1`?
Colony forming units (CFU) ([1]; Detonation 1, 0.4 h exposure): 0 CFU; Colony forming units (CFU) ([1]; Detonation 2, 2.9 h exposure): 0 CFU; Colony forming units (CFU) ([1]; Detonation 3, 24.0 h exposure): 0 CFU; Kill rate [2]: > 7 log10 orders of magnitude

This is a selection: effects in other tests are not listed, and their absence says nothing.
